Consider 1 molecule from patent US8163906B2, “Dihydroquinone and dihydronaphthridine inhibitors of JNK” (Roche Palo Alto, LLC, priority 2007, dated 2012).

Amino acid sequences for entries named in this document (tags omitted). A change or cut given only in a name is not applied to a line headed by its entry.
UniProt P45984: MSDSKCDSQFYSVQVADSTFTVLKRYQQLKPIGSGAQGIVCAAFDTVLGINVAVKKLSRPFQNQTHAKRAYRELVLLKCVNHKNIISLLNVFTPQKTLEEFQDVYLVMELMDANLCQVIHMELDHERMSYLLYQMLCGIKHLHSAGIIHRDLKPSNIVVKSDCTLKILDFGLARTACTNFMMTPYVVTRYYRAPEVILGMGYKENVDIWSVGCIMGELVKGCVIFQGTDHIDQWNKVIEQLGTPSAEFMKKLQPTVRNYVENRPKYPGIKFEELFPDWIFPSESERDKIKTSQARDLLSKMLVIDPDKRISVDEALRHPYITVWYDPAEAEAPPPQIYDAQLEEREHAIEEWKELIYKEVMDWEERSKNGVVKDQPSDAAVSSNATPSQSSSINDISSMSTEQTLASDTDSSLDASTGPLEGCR

This experiment deals with Human JNK2α2 (Homo sapiens, UniProt P45984). Description: JNK assay in vitro, phosphorylation of GST-ATF2 with [γ-33P] ATP (JNK2). The class given is biochemical. The conditions noted are these: ATP at Km (8 μM), 1 μM ATF2, 30° C. 30 min. How it is done: JNK activity was measured by phosphorylation of GST-ATF2 (19-96) with [γ-^33P] ATP. […] Human JNK2α2 assay contains 1 nM enzyme, 1 μM ATF2, 8 μM ATP with 1 uCi [γ-^33P] ATP. Human JNK1α1 assay contains 2 nM enzyme, 1 μM ATF2, 6 μM ATP with 1 μCi [γ-^33P] ATP. […] ATP. The enzyme assay was carried out in the presence or absence of several compound concentrations. JNK and compound were pre-incubated for 10 min., followed by initiation of the enzymatic reaction by adding ATP and the substrate. The reaction mixture was incubated at 30° C. for 30 min. […] The incorporation of ^33P into ATF2 was quantified on a microplate scintillation counter (Packard Topcount). Compound inhibition potency on JNK was measured by IC50 value generated from ten concentration inhibition curves fitted into the 3-parameter model: % inhibition=Maximum/(1+(IC50/[Inhibitor])^slope). Data were analyzed on Microsoft Excel for parameter estimation.

Molecule `CNS(=O)(=O)c1ccc(Cc2c(C(=O)OC)n(-c3ccccc3)c3cc(Cl)ccc3c2=O)cc1` [Compound 44, 7-Chloro-3-(4-methylsulfamoyl-benzyl)-4-oxo-1-phenyl-1,4-dihydroquinoline-2-carboxylic acid methyl ester] returned a concentration for half-maximal inhibition (IC50) of 168 nM.

As usually defined, the IC50 is the concentration that inhibits the measured activity by half. Read a high IC50 as a need for much substance.
